# According to PubChem BioAssay AID2648 (Johns Hopkins Ion Channel Center, 2010):
# Amino acid sequences for entries named in this document (tags omitted).
# UniProt P51787, whole entry: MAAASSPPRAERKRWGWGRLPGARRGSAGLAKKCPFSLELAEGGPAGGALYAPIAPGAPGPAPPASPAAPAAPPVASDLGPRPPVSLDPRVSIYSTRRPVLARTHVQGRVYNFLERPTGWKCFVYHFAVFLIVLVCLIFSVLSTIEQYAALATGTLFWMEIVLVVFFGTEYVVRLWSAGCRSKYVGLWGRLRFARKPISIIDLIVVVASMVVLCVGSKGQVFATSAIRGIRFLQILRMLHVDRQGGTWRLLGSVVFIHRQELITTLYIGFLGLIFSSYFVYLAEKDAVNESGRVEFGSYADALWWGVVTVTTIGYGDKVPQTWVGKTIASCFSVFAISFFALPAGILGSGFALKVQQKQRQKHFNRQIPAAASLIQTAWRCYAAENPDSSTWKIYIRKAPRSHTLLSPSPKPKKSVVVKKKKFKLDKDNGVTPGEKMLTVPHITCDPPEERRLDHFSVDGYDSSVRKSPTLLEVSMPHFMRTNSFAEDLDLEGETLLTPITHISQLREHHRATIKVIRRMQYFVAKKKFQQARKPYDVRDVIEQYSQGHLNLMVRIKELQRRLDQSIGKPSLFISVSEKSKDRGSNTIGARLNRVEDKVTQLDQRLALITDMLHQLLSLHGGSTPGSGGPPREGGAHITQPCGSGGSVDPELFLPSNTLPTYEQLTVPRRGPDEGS
# The list shows a part of the results, in another mix than the full data. Activity calls are given as the source filed them.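 How the source made its calls: active means fluorescence ratio B-score, a plate-corrected score, at least three library SD, with initial intensity B-score within 5 SD; inactive means the rest.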
# Target: Potassium voltage-gated channel subfamily KQT member 1 (Homo sapiens) (UniProt P51787)
# Assay: potentiators or activators of KCNQ1 channel, primary screen, cell-based, thallium flux, high-throughput (AID 2648)
# Details: CHO-K1 KCNQ1, thallium flux FluxOR fluorescence; at 10 µM
row,Structure (SMILES),outcome
1,COc1cc(C(=O)NCC2(N(C)C)CCCCC2)ccc1OC(F)F,inactive
2,CCOC(=O)N1CCC(Nc2cccc(C)c2)CC1,inactive
3,Cc1ccc(OCC(C)C)c(CN(CCCl)CCCl)c1,inactive
4,CCOc1ccc(C)cc1CN(CCCl)CCCl,inactive
5,O=C(NCC1(N2CCCCC2)CCCCC1)c1ccc(F)cc1,inactive
6,COc1ccc(NC2CCN(CCc3ccccc3)CC2)c(OC)c1,inactive
7,CCOC(=O)N1CCC(Nc2ccc(F)cc2)CC1,inactive
8,O=C(NCC1(N2CCOCC2)CCCCC1)c1cc2ccccc2o1,inactive
9,O=C(NCC1(N2CCCCC2)CCCCC1)c1ccc(Cl)nc1,inactive
10,Cc1cc(C)cc(N(C(=O)c2ccccc2)C2CCN(C(=O)OC(C)(C)C)CC2)c1,inactive
11,CCOC(=O)N1CCC(Nc2ccc(OC)cc2)CC1,inactive
12,O=C(OC1CN2CCC1CC2)C1c2ccccc2Oc2ccccc21 (centres undefined),inactive
13,N#CC1(Nc2ccccc2)CCN(Cc2ccccc2)CC1,inactive
14,O=C(NCC1(N2CCCCC2)CCCCC1)c1ccc(=O)[nH]c1,inactive
15,O=C(NCC1(N2CCCCC2)CCCCC1)c1cccs1,inactive
16,COc1ccc(C(=O)NCC2(N3CCCCC3)CCCCC2)cc1,inactive
17,CC(C)(C)OC(=O)N1CCC(N(C(=O)c2ccccc2)c2ccc(F)cc2)CC1,inactive
18,COc1ccc(C(=O)NCC2(N3CCCCC3)CCCCC2)c(OC)c1OC,inactive
19,CSc1ccccc1C(=O)NCC1(N2CCCCC2)CCCCC1,inactive
20,CN1CCC(Nc2cccc(F)c2)CC1,inactive

row,Structure (SMILES),outcome
1,CCCOc1ccc(C(=O)NCC2(N(C)C)CCCCC2)cc1OC,inactive
2,COc1ccc(CN(CCCl)CCCl)cc1Cl,inactive
3,CN(C)c1cccc(C(=O)NCC2(N3CCCCC3)CCCCC2)c1,inactive
4,CC(C)c1ccc(NC2CCN(C(=O)OC(C)(C)C)CC2)cc1,inactive
5,COc1cc(OC)c(C(=O)NCC2(N(C)C)CCCCC2)cc1OC,inactive
6,O=C(NCC1(N2CCCCC2)CCCCC1)c1cccc(C(F)(F)F)c1,inactive
7,CN1CCN(CCOC(=O)C(O)(c2ccccc2)c2ccccc2)CC1,inactive
8,COc1ccc(NC2CCN(C(=O)OC(C)(C)C)CC2)cc1,inactive
9,COc1cc(C(=O)NCC2(N3CCCCC3)CCCCC2)ccc1OC(F)F,inactive
10,O=C(NCC1(N2CCOCC2)CCCCC1)c1cc(=O)[nH]c2ccccc12,inactive
11,O=C(NCC1(N2CCCCC2)CCCCC1)c1ccc(OC(F)F)cc1,inactive
12,O=C(NCC1(N2CCCCC2)CCCCC1)c1cccc([N+](=O)[O-])c1,inactive
13,CCN1CCC(Nc2ccc(Cl)cc2)CC1,inactive
14,N#CC1(Nc2ccccc2)CCN(CCc2ccccc2)CC1,inactive
15,c1ccc(CN2CCC(Nc3ccccc3)CC2)cc1,inactive
16,CCCN1CCC(Nc2cc(OC)cc(OC)c2)CC1,inactive
17,CN(C)C1(CNC(=O)c2cccc(C#N)c2)CCCCC1,inactive
18,CC(C)(C)OC(=O)N1CCC(N(C(=O)c2ccccc2)c2ccc(Cl)cc2)CC1,inactive
19,N#Cc1ccc(C(=O)NCC2(N3CCCCC3)CCCCC2)cc1,inactive
20,N/C(=N\O)c1c(N)no[n+]1[O-],inactive

row,Structure (SMILES),outcome
1,CCOC(=O)N1CCC(Nc2ccc(C)cc2)CC1,inactive
2,O=C(OC1CN2CCC1CC2)C1c2ccccc2C=Cc2ccccc21 (centres undefined),inactive
3,CCc1cc(C(=O)NCC2(N3CCCCC3)CCCCC2)sc1C,inactive
4,COc1ccc(C(=O)NCC2(N3CCOCC3)CCCCC2)cc1OC,inactive
5,CCC(CO)(C(=O)OC1CN2CCC1CC2)c1ccccc1 (centres undefined),inactive
6,COc1cc(OC)cc(C(=O)NCC2(N3CCOCC3)CCCCC2)c1,inactive
7,COc1cccc(C(=O)N(c2cc(C)cc(C)c2)C2CCN(C(=O)OC(C)(C)C)CC2)c1,inactive
8,CCCOc1ccc(C)cc1CN(CCCl)CCCl,inactive
9,CN1CCC(Nc2ccc(Cl)cc2)CC1,inactive
10,CCOc1ncccc1C(=O)NCC1(N2CCOCC2)CCCCC1,inactive
11,CN1CCC(Nc2ccc(F)c(Cl)c2)CC1,inactive
12,CCCOc1ccc(C(=O)NCC2(N(C)C)CCCCC2)cc1,inactive
13,CC(C)(C)OC(=O)N1CCC(Nc2ccccc2)CC1,inactive
14,O=C(O)C1(Nc2ccccc2)CCN(Cc2ccccc2)CC1,inactive
15,CCN1CCC(Nc2cccc(F)c2)CC1,inactive
16,CN(C)c1ccc(C(=O)NCC2(N3CCCCC3)CCCCC2)cc1,inactive
17,COc1cc(OC)cc(C(=O)NCC2(N3CCCCC3)CCCCC2)c1,inactive
18,Cc1ccc(C(=O)NCC2(N3CCCCC3)CCCCC2)o1,inactive
19,Fc1ccccc1NC1CCN(Cc2ccccc2)CC1,inactive
